pIC50: −log10 of the molar value.
How the values were obtained:
[1] = biological target: T1, hERG (Homo sapiens, UniProt Q12809); test: cell-based
[2] = biological target: T1, hERG; test: Automated patch clamp, hERG current block, Milnes protocol (site s06)

Chains of the proteins cited; added tags and fusions are not shown. Lines headed by an entry give the natural chain unless they say otherwise; changes in a name come on top.
UniProt Q12809: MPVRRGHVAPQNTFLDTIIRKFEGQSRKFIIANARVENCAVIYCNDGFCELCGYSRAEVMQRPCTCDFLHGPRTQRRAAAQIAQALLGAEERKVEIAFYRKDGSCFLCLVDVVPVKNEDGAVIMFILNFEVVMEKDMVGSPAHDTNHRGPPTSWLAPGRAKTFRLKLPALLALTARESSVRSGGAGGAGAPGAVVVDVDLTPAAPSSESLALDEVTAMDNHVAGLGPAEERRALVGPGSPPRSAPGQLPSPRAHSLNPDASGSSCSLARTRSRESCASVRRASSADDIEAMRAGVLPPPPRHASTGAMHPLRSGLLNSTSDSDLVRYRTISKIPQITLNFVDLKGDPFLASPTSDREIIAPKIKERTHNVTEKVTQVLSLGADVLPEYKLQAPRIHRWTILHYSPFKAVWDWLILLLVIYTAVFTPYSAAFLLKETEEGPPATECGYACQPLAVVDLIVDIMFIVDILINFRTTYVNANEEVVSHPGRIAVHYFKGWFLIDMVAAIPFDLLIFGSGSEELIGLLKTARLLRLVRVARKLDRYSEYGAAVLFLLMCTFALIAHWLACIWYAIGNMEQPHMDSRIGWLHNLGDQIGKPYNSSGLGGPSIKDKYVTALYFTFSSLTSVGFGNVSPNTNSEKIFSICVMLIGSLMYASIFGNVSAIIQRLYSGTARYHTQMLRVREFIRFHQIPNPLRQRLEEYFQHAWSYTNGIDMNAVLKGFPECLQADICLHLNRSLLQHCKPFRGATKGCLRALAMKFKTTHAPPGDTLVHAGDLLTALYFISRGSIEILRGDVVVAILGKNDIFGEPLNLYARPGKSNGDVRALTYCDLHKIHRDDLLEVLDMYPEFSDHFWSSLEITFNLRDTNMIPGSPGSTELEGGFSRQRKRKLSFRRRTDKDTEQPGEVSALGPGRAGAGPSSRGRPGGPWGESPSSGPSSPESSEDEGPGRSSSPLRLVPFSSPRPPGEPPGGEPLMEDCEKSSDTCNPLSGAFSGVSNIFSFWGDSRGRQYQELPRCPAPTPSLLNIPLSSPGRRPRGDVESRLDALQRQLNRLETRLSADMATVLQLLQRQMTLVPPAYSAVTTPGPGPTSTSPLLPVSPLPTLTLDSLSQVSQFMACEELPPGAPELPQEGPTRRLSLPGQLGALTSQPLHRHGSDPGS

Q: `Cc1nccn1CC1CCc2c(c3ccccc3n2C)C1=O` (centres unmarked) [ond, ondansetron] was tested. Which pIC50 ([1]; hERG K+ current log IC50, s01_p1, CHO, 23 °C) did it give?
A: Its pIC50 is 5.74.

Q: And the pIC50 ([1]; hERG K+ current log IC50, s02_p2, HEK293, 22–26 °C)?
A: The pIC50 was 5.59.

Q: What about the pIC50 ([1]; hERG K+ current log IC50, s03_p2, HEK293, room temperature) of the same compound?
A: Its pIC50 is 6.27.

Q: What about the pIC50 ([1]; hERG K+ current log IC50, s05_p4, HEK293, 22–24 °C) of the same compound?
A: The pIC50 was 5.84.

Q: And the pIC50 ([1]; hERG K+ current log IC50, s15_p1, HEK293, 22–23 °C)?
A: The pIC50 was 6.00.

Q: What about the pIC50 ([1]; hERG K+ current log IC50, s16_p3, HEK293, room temperature) of the same compound?
A: The pIC50 was 5.72.

Q: What about the pIC50 ([1]; hERG K+ current log IC50, s18_p1, CHO, 35 °C) of the same compound?
A: The pIC50 was 5.65.

Q: What about the pIC50 ([1]; hERG K+ current log IC50, s19_p3, CHO, room temperature) of the same compound?
A: The pIC50 was 5.90.

Q: And the pIC50 ([1]; log IC50, hERG K+ current inhibition, […])?
A: The pIC50 was 5.87.

Q: And the pIC50 ([1]; log IC50, hERG K+ current inhibition, site_platform s10_p3)?
A: Its pIC50 is 5.40.

Q: And the pIC50 ([1]; log IC50, hERG K+ current inhibition, site_platform s12_p2)?
A: The pIC50 was 5.94.

Q: And the pIC50 ([1]; log IC50, hERG K+ current inhibition, site_platform s13_p2)?
A: The pIC50 was 5.81.

Q: What about the pIC50 ([1]; log IC50, hERG K+ current inhibition, site_platform s14_p1) of the same compound?
A: The pIC50 was 6.51.

Q: And the pIC50 [2]?
A: The pIC50 was 6.05.
